Test [1] concerns primary human total T-cells. Kind of test: Primary human total T-cell activation (IL-2 secretion, CD25 surface staining), Biological Example 2. Particulars: anti-CD3 and anti-CD28 co-stimulation, fold change over baseline; for CD25 staining CD3/CD28 0.3 μM: 0.3 μM inhibitor; for CD25 staining CD3/CD28 1 μM: 1 μM inhibitor.
Test [2] concerns primary human total T-cells. The test is described as follows: Primary human total T-cell activation (IL-2 secretion, CD25 surface staining), Biological Example 9. Particulars: fold change over baseline, Table 9-1; for CD25 staining CD3/CD28 0.3 μM: 0.3 μM inhibitor; for CD25 staining CD3/CD28 0.3 μM / CD25 staining CD3/CD28 1 μM: anti-CD3 and anti-CD28 co-stimulation; for CD25 staining CD3/CD28 1 μM / CD25 staining CD3 1 μM: 1 μM inhibitor; for CD25 staining CD3 1 μM / CD25 staining CD3 3 μM: anti-CD3 stimulation alone; for CD25 staining CD3 3 μM: 3 μM inhibitor.

Test [3] deals with primary human total T-cells. The test is described as follows: Primary human total T-cell activation (IL-2 secretion, CD25 surface staining), Biological Example 12. The conditions noted are these: fold change over baseline, Table 12-1; for CD25 staining CD3/CD28 0.3 μM: 0.3 μM inhibitor; for CD25 staining CD3/CD28 0.3 μM / CD25 staining CD3/CD28 1 μM: anti-CD3 and anti-CD28 co-stimulation; for CD25 staining CD3/CD28 1 μM / CD25 staining CD3 1 μM: 1 μM inhibitor; for CD25 staining CD3 1 μM / CD25 staining CD3 3 μM: anti-CD3 stimulation alone; for CD25 staining CD3 3 μM: 3 μM inhibitor.

As to `C[C@H]1CCCN(Cc2cc3c(c(C(F)(F)F)c2)CN(c2cccc([C@H](c4nncn4C)C4CCC4)c2)C3=O)C1` [Compound 3, 2-(3-((R)-cyclobutyl(4-methyl-4H-1,2,4-triazol-3-yl)methyl)phenyl)-6-(((S)-3-methylpiperidin-1-yl)methyl)-4-(trifluoromethyl)isoindolin-1-one], in test [1], the “CD25 staining CD3/CD28 0.3 μM” value is listed as “A (A indicates >1.39 fold)” and the “CD25 staining CD3/CD28 1 μM” value is “A (A indicates >1.39 fold)”. Also, in test [2], the “CD25 staining CD3/CD28 0.3 μM” value is “A (A indicates >1.39 fold)”, the “CD25 staining CD3/CD28 1 μM” value is reported as “A (A indicates >1.39 fold)”, the “CD25 staining CD3 1 μM” value was “A (A indicates >1.14 fold)” and the “CD25 staining CD3 3 μM” value was “A (A indicates >1.14 fold)”. Also, in test [3], the “CD25 staining CD3/CD28 0.3 μM” value is “A (A indicates >1.39 fold)”, the “CD25 staining CD3/CD28 1 μM” value is reported as “A (A indicates >1.39 fold)”, the “CD25 staining CD3 1 μM” value was “A (A indicates >1.14 fold)” and the “CD25 staining CD3 3 μM” value is “A (A indicates >1.14 fold)”.
As to `C[C@@H]1CN(Cc2cc3c(c(C(F)(F)F)c2)CN(c2cccc([C@H](c4nncn4C)C4CCC4)c2)C3=O)CCO1` [Compound 17, 2-(3-((R)-cyclobutyl(4-methyl-4H-1,2,4-triazol-3-yl)methyl)phenyl)-6-(((R)-2-methylmorpholino)methyl)-4-(trifluoromethyl)isoindolin-1-one], in test [2], the “CD25 staining CD3/CD28 0.3 μM” value is “C (C indicates ≤1.24 fold)”, the “CD25 staining CD3/CD28 1 μM” value was “C (C indicates ≤1.24 fold)” and the “CD25 staining CD3 1 μM” value is listed as “A (A indicates >1.14 fold)”. In test [3], the “CD25 staining CD3/CD28 0.3 μM” value is on record as “C (C indicates ≤1.24 fold)”, the “CD25 staining CD3/CD28 1 μM” value is given as “C (C indicates ≤1.24 fold)” and the “CD25 staining CD3 1 μM” value is “A (A indicates >1.14 fold)”.
Take `C[C@H]1CCCN(Cc2cc3c(c(C(F)(F)F)c2)CN(c2cccc([C@]4(c5nncn5C)C[C@@H](C#N)C4)c2)C3=O)C1` [Compound 38, (1R,3s)-3-(4-methyl-4H-1,2,4-triazol-3-yl)-3-(3-(6-(((S)-3-methylpiperidin-1-yl)methyl)-1-oxo-4-(trifluoromethyl)isoindolin-2-yl)phenyl)cyclobutane-1-carbonitrile]: in test [1], the “CD25 staining CD3/CD28 0.3 μM” value was “A (A indicates >1.39 fold)” and the “CD25 staining CD3/CD28 1 μM” value is “A (A indicates >1.39 fold)”. Moreover, in test [2], the “CD25 staining CD3/CD28 0.3 μM” value is “A (A indicates >1.39 fold)”, the “CD25 staining CD3/CD28 1 μM” value is “A (A indicates >1.39 fold)”, the “CD25 staining CD3 1 μM” value is “A (A indicates >1.14 fold)” and the “CD25 staining CD3 3 μM” value is listed as “A (A indicates >1.14 fold)”. Further, in test [3], the “CD25 staining CD3/CD28 0.3 μM” value is “A (A indicates >1.39 fold)”, the “CD25 staining CD3/CD28 1 μM” value is “A (A indicates >1.39 fold)”, the “CD25 staining CD3 1 μM” value is given as “A (A indicates >1.14 fold)” and the “CD25 staining CD3 3 μM” value is “A (A indicates >1.14 fold)”.
As to `C[C@H]1CCCN(Cc2cc3c(c(C(F)(F)F)c2)CN(c2cccc(C4(c5nncn5C)CC5(CC5)C4)c2)C3=O)C1` [Compound 42, 6-[[(3S)-3-methyl-1-piperidyl]methyl]-2-[3-[5-(4-methyl-1,2,4-triazol-3-yl)spiro[2.3]hexan-5-yl]phenyl]-4-(trifluoromethyl)isoindolin-1-one], in test [2], the “CD25 staining CD3/CD28 0.3 μM” value is “A (A indicates >1.39 fold)”, the “CD25 staining CD3/CD28 1 μM” value is listed as “A (A indicates >1.39 fold)”, the “CD25 staining CD3 1 μM” value was “A (A indicates >1.14 fold)” and the “CD25 staining CD3 3 μM” value was “A (A indicates >1.14 fold)”. Besides, in test [3], the “CD25 staining CD3/CD28 0.3 μM” value is reported as “A (A indicates >1.39 fold)”, the “CD25 staining CD3/CD28 1 μM” value was “A (A indicates >1.39 fold)”, the “CD25 staining CD3 1 μM” value is reported as “A (A indicates >1.14 fold)” and the “CD25 staining CD3 3 μM” value is “A (A indicates >1.14 fold)”.
On to `C[C@H]1CCCN(Cc2cc3c(c(C(F)(F)F)c2)CN(c2cccc([C@]4(c5nncn5C)C[C@@H](CC#N)C4)c2)C3=O)C1` [Compound 48, 2-((1R,3s)-3-(4-methyl-4H-1,2,4-triazol-3-yl)-3-(3-(6-(((S)-3-methylpiperidin-1-yl)methyl)-1-oxo-4-(trifluoromethyl)isoindolin-2-yl)phenyl)cyclobutyl)acetonitrile], for which, in test [1], the “CD25 staining CD3/CD28 0.3 μM” value is listed as “A (A indicates >1.39 fold)” and the “CD25 staining CD3/CD28 1 μM” value is “A (A indicates >1.39 fold)”.
Regarding `C[C@H]1CCCN(Cc2cc3c(c(C(F)(F)F)c2)CN(c2cccc([C@]4(c5nncn5C)C[C@H](CC#N)C4)c2)C3=O)C1` [Compound 50, 2-((1S,3r)-3-(4-methyl-4H-1,2,4-triazol-3-yl)-3-(3-(6-(((S)-3-methylpiperidin-1-yl)methyl)-1-oxo-4-(trifluoromethyl)isoindolin-2-yl)phenyl)cyclobutyl)acetonitrile], in test [1], the “CD25 staining CD3/CD28 0.3 μM” value is “A (A indicates >1.39 fold)” and the “CD25 staining CD3/CD28 1 μM” value is reported as “A (A indicates >1.39 fold)”.
In the case of `C[C@@H]1CN(Cc2cc3c(c(C(F)(F)F)c2)CN(c2cccc(C4(c5nncn5C)CC(F)(F)C4)c2)C3=O)CCC1(F)F` [Compound 52, 2-{3-[3,3-difluoro-1-(4-methyl-1,2,4-triazol-3-yl)cyclobutyl]phenyl}-6-{[(3R)-4,4-difluoro-3-methylpiperidin-1-yl]methyl}-4-(trifluoromethyl)-3H-isoindol-1-one], in test [1], the “CD25 staining CD3/CD28 0.3 μM” value is given as “A (A indicates >1.39 fold)” and the “CD25 staining CD3/CD28 1 μM” value was “A (A indicates >1.39 fold)”.
With `C[C@@H]1CN(Cc2cc3c(c(C(F)(F)F)c2)CN(c2cccc(C4(c5nncn5C)CC(F)(F)C4)c2)C3=O)CCO1` [Compound 53, 2-{3-[3,3-difluoro-1-(4-methyl-1,2,4-triazol-3-yl)cyclobutyl]phenyl}-6-{[(2R)-2-methylmorpholin-4-yl]methyl}-4-(trifluoromethyl)-3H-isoindol-1-one], in test [1], the “CD25 staining CD3/CD28 0.3 μM” value was “A (A indicates >1.39 fold)” and the “CD25 staining CD3/CD28 1 μM” value is “A (A indicates >1.39 fold)”.
